Assay results taken from patent publication US11339120B2, “Phenyl derivatives as cannabinoid receptor 2 agonists” (priority 2015, dated 2022).

Amino acid sequences for entries named in this document (tags omitted).
UniProt P21554, whole entry: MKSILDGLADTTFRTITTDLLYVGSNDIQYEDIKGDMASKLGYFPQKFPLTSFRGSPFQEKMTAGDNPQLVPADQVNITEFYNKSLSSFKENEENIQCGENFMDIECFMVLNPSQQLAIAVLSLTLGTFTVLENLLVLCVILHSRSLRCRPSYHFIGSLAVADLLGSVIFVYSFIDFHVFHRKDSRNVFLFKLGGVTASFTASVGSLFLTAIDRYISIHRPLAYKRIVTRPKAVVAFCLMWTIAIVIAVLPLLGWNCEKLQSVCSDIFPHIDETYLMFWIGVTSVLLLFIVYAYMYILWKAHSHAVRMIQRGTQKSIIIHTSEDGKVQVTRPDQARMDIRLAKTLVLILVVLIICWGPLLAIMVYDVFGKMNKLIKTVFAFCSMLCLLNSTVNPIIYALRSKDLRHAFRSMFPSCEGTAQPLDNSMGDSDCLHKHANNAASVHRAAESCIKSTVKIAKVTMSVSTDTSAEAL
UniProt P34972, whole entry: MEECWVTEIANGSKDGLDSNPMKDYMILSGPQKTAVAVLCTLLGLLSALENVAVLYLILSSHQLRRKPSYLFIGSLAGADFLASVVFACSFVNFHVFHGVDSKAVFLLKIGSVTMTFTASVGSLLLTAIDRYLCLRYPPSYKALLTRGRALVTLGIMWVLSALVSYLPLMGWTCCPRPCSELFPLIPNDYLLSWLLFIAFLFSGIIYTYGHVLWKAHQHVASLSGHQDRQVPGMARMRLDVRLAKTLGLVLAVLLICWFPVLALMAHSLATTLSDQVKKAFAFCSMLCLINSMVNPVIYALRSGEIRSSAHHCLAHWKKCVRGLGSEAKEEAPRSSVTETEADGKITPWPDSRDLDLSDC

How the values were obtained:
human CB1 receptors = human CB1 receptors (Homo sapiens, UniProt P21554); experiment: functional cAMP assay, CHO cells expressing human CB1; assay type: cell-based; details: read-out: Human CB1 EC50
Procedure: (§1) CHO cells expressing human CB1 or CB2 receptors are seeded 17-24 hours prior to the experiment 50.000 cells per well in a black 96 well plate with flat clear bottom (Corning Costar #3904) in DMEM (Invitrogen No. 31331), 1×HT supplement, with 10% fetal calf serum and incubated at 5% CO2 and 37° C. in a humidified incubator. The growth medium was exchanged with Krebs Ringer Bicarbonate buffer with 1 mM IBMX and incubated at 30° C. for 30 min. Compounds were added to a final assay volume of 100 μl and incubated for 30 min at 30° C. […] The time-resolved energy transfer is measured by a TRF reader (Evotec Technologies GmbH), equipped with a ND:YAG laser as excitation source. The plate is measured twice with the excitation at 355 nm and at the emission with a delay of 100 ns and a gate of 100 ns, total exposure time 10 s at 730 (bandwidth 30 nm) or 645 nm (bandwidth 75 nm), respectively. The FRET signal is calculated as follows: FRET=T730-Alexa730-P(T645-B645) with P=Ru730-B730/Ru645-B645, where T730 is the test well measured at 730 nM, T645 is the test well measured at 645 nm, B730 and B645 are the buffer controls at 730 nm and 645 nm, respectively. cAMP content is determined from the function of a standard curve spanning from 10 μM to 0.13 nM cAMP.
(§2) EC50 values were determined using Activity Base analysis (ID Business Solution, Limited). […]

human CB2 receptors = human CB2 receptors (Homo sapiens, UniProt P34972); experiment: functional cAMP assay, CHO cells expressing human CB2; assay type: cell-based; details: read-out: Human CB2 EC50
Procedure: as §1, §2

Work on `Cc1nc(C(NC(=O)c2ccc(C3CC3)c(OCCF)c2)C2(C)COC2)no1` (centres unmarked) yielded an EC50 (human CB1 receptors) of over 10000 nM and an EC50 (human CB2 receptors) of 506 nM.
